These results are taken from PubChem BioAssay AID2520 (Sanford-Burnham Center for Chemical Genomics, 2010).

Protein sequences, listed by entry. Tags and fused reporters are not part of them.
UniProt P35414, whole entry: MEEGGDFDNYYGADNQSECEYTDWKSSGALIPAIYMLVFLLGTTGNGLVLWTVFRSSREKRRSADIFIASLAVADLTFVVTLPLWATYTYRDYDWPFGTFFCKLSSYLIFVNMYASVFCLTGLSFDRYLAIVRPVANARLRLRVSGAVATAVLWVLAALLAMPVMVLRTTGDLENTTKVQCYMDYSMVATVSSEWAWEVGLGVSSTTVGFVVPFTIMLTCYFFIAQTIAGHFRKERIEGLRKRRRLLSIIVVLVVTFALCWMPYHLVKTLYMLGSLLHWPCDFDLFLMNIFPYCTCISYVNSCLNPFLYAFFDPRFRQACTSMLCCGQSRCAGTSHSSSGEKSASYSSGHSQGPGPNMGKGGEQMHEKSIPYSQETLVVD

The structures appear in SMILES notation. Only a part is listed here, and it is no random draw. Some results for these compounds are left out of this collection, so the calls shown say nothing about other tests. Activity calls are given as the source filed them.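 The calls were made as follows: active = activation more than six SD over the plate average, tested at 20 µM; inactive = the rest.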

This test addresses Apelin receptor (Homo sapiens) (UniProt P35414). The experiment in a line: agonists of human apelin receptor APJ, primary screen, CHO-K1 cells, PathHunter beta-arrestin, luminescence (AID 2520). The following applies: at 20 µM, stronger effect = higher value, 0% DMSO wells, 100% apelin. Summed up: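 Test system – PathHunter CHO-K1 APJ (AGTRL-1) beta-arrestin reporter cells · Input – 1000 cells/well · Compound – single test compound dose, 20 µM final, 1% DMSO · Times – compound stimulation 90 min at 25 °C, detection 60 min · Technique – beta-gal luminescence · Read-out basis – APJ–arrestin association signal · Control set – negative DMSO alone, positive Apelin-13 at 10 nM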
For `COc1ccc(Br)c(C(=O)NCC2(N3CCCCC3)CCCCC2)c1`, the activation was inactive: -5.51%.
With `CN(C)c1cccc(C(=O)NCC2(N(C)C)CCCCC2)c1`, the activation is inactive: 1.54%.
Regarding `CC(C)Oc1ccc(C(=O)NCC2(N(C)C)CCCCC2)cc1`, the activation is inactive: -2.45%.
The figure for `O=C(OC1CN2CCC1CC2)C(CO)(c1ccccc1)c1ccccc1` (centres undefined) is inactive: -5.32%; for `COc1cccc(C(=O)NCC2(N3CCCCC3)CCCCC2)c1` it is inactive: -1.81%.
In the case of `COc1ccc(Cl)cc1C(=O)NCC1(N(C)C)CCCCC1`, the activation is inactive: -5.32%.
Take `O=C(NCC1(N2CCCCC2)CCCCC1)c1cccc(Cl)c1`: the activation was inactive: -4.01%.
Consider `CN(C)C1(CNC(=O)c2ccc(Br)cc2)CCCCC1`, for which the activation was inactive: -1.27%.
Under `COc1cc(C(=O)NCC2(N(C)C)CCCCC2)c([N+](=O)[O-])cc1OC` stands inactive: 1.79%; under `C=CCN1CCN(CCOC(=O)C(O)(c2ccccc2)c2ccccc2)CC1`, inactive: -2.08%; under `O=C(NCC1(N2CCCCC2)CCCCC1)c1cc(F)c(F)cc1Cl`, inactive: -2.75%.
Under `CCN1CCCC(OC(=O)C2(O)c3ccccc3C=Cc3ccccc32)C1` (centres undefined) stands inactive: 0.489%; under `Cc1cc(C(=O)NCC2(N3CCCCC3)CCCCC2)ccc1[N+](=O)[O-]`, inactive: -0.942%; under `O=C(NCC1(N2CCCCC2)CCCCC1)c1cccc(Br)c1`, inactive: -2.19%.
`COc1ccc(C(=O)NCC2(N(C)C)CCCCC2)cc1`: the activation was inactive: -2.41%.
The figure for `Cc1ccccc1C(=O)NCC1(N2CCCCC2)CCCCC1` is inactive: -4.99%; for `CN(C)c1ccc(C(=O)NCC2(N(C)C)CCCCC2)cc1` it is inactive: -3.39%.
Under `CN(C)C1CCCC1OC(=O)C(O)(c1ccccc1)c1ccccc1` (centres undefined) stands inactive: -1.89%.
The figure for `CC(C)N1C(=O)CC2(CCN(CCOC(=O)C(O)(c3ccccc3)c3ccccc3)CC2)C1=O` is inactive: 1.58%; for `CCN(CC)CC(C)C(C)OC(=O)C(O)(c1ccccc1)c1ccccc1` (centres undefined) it is inactive: -1.96%.
With `COc1cc(SC)ccc1C(=O)NCC1(N(C)C)CCCCC1`, the activation was inactive: -1.33%.
As to `Cc1ccc(C(=O)NCC2(N3CCCCC3)CCCCC2)cc1`, the activation is inactive: -2.56%.
Under `O=C(NCC1(N2CCCCC2)CCCCC1)c1cc([N+](=O)[O-])ccc1Cl` stands inactive: -0.606%; under `CN1[C@@H]2CC[C@H]1CC(OC(=O)C(O)(c1ccccc1)c1ccccc1)C2` (some centres undefined), inactive: -2.16%.
